Drawing on PubChem BioAssay AID802 (Columbia University Molecular Screening Center, 2007), this text covers inhibition for three compounds.

The list shows a part of the results, in another mix than the full data. Some tests of the compounds listed are not included; inactive here does not mean inactive elsewhere. The source made the active and inactive calls.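 How the source made its calls: active means inhibition above the batch mean plus 3 SD, with images confirmed as a hit by eye (cut at about 37% in these data); inconclusive means inhibition above that limit but hit not confirmed in images; inactive means inhibition not above that limit.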

The nature of this assay: blockers of endothelial VCAM-1 upregulation by TNFa – imaging, HUVEC, TNFa stimulus, immunofluorescence, primary screen (AID 802).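 Further: 0% = TNF-stimulated DMSO wells and 100% = unstimulated control wells.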 The note with it: HUVEC TNFa-induced VCAM-1 immunofluorescence, high-content imaging; at 2 µM; hits give high values.
Turning to `CC(C)N1C(=O)CC2(CCN(CCOC(=O)C(O)(c3ccccc3)c3ccccc3)CC2)C1=O`, the inhibition was inactive: -6.2%.

Take `CN(C)c1cccc(C(=O)NCC2(N(C)C)CCCCC2)c1`: the inhibition was inactive: 2.8%.

Regarding `O=C(OC1CN2CCC1CC2)C(CO)(c1ccccc1)c1ccccc1` (stereo not drawn), the inhibition was inactive: -2.8%.
